Assay outcomes from PubChem.
UUG fidelity = modulators of start codon recognition fidelity in yeast; AID 602363; hit rate 0.13% among 350,000; activity score, % at 18.7 µM; S. cerevisiae UUG-firefly luciferase reporter, luminescence/redox ratio;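 active = replicate mean at a twofold rise or more, about +100% in these data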;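 note: firefly luciferase made from a UUG start codon reports start codon fidelity; reporter light over untreated wells divided by growth signal over untreated wells; some hits fall short of that in this replicate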
PGC1a acetyl inh = inhibitors of PGC1a acetylation signal, primary screen, cell-based, U2OS, AlphaScreen, inhibitor mode; inhibition, % at 15.6 µM; AlphaScreen anti-acetyl-lysine; with virally co-expressed GCN5 acetyltransferase; 350,000 tested, 0.17% active;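 active = every replicate shows inhibition of at least 40%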
C2C12 statin = suppressors of statin myotoxicity in C2C12 myotubes, primary screen, cell-based, single point, plate reader | C2C12 myotubes + simvastatin, ATP luminescence, 48 h; scaled: DMSO 0, geranylgeraniol control 100 | rescue of ATP level, % at 7.49 µM | 330,000 tested, 0.78% active | AID 602340, 2012;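 active = mean ATP rescue above about 67%, or every replicate alone reaching that limit, limit read from the data, passing the limit was not always enough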;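 note: myotubes were challenged with 10 µM simvastatin during compound exposure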
E-sel inducer = E-selectin induction in HUVECs, primary screen, imaging, HUVEC, immunofluorescence imaging, single point; normalized: neutral wells 0, TNF-alpha wells 100; 260,000 tested, 0.37% active; activation, % at 7.58 µM; AID 686992, 2013;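 active = mean E-selectin-positive cell signal at least 10% of the positive control, reached in at least 60% of replicates, without over 20% cell loss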
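Assay system: HUVEC, human umbilical vein endothelial cells / Amount: 3,000 HUVEC/well / Controls: TNF-alpha positive control, DMSO neutral control / Compound dosing: single concentration / Medium: EGM-2 over gelatin coat / Evaluation: percent E-selectin-positive cells / Signal: immunofluorescence imaging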
esBAF inh = Bmi1 luciferase reporter increase in mESCs, primary screen, esBAF inhibitor project, mouse ES cells, Bmi1 luciferase knock-in, single point; 24 h; 100% = twice the neutral-well signal; reporter increase, % at 12.5 µM; 350,000 tested, 2% active; in the data active = activation above about 40%;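 note: a rise in the Bmi1 reporter signal indicates esBAF inhibition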
PglD DTNB = C. jejuni PglD acetyltransferase inhibitors, primary screen, biochemical, DTNB colorimetric, single point; inhibition, % at 12.5 µM; UDP-N-acetylbacillosamine N-acetyltransferase PglD (Campylobacter jejuni); purified PglD enzyme, DTNB colorimetric CoA detection; 360,000 tested, 0.098% active; AID 602405, 2012; in the data active = inhibition above about 16%, passing the limit was not always enough
Numbers stand for hits; - = inactive; . = no result. Hits are enriched below; roughly 2.8% of the tested compounds scored in any of these assays.

SMILES | UUG fidelity | PGC1a acetyl inh | C2C12 statin | E-sel inducer | esBAF inh | PglD DTNB
COc1ccc(-c2ccc([C@@H]3[C@@H](C#N)N(C(=O)c4cccnc4)[C@H]3CO)cc2)cc1 | - | - | - | - | - | -
Cc1ccccc1-c1cnc2c(c1)C(=O)N([C@@H](C)CO)C[C@H](C)[C@H](CN(C)C(=O)CN(C)C)O2 | - | - | - | - | - | -
CS(=O)(=O)N1[C@H](C(=O)NC2CCC2)[C@@H](CO)[C@@H]2Cn3c(ccc(-c4cccc(F)c4)c3=O)[C@@H]21 | . | . | . | - | . | .
COC(=O)CCCNC(=O)c1ccc2oc(CCCc3ccccc3)nc2c1 | - | - | - | - | - | -
CCOC(=O)N1CCN(C(=O)c2ccc3nc(C)sc3c2)CC1 | - | - | . | . | . | -
CCOC(=O)C1CCCN(C(=O)c2ccc3oc(Cc4ccccc4)nc3c2)C1 (stereo not drawn) | - | . | - | . | 69.9 | -
CCOC(=O)N1CCN(C(=O)c2ccc3c(c2)sc2nc(-c4ccccc4)cn23)CC1 | - | - | - | . | 78.6 | -
CC(C)(CO)NC(=O)c1ccc2nc(Cc3cccc(Cl)c3)oc2c1 | - | - | - | . | 42.7 | -
COC(=O)[C@@H](C)NC(=O)c1ccc2oc(CCc3ccccc3)nc2c1 | - | - | - | . | 65.7 | -
CC(C)CC(=O)C1CCCN(C(=O)c2ccc3oc(Cc4ccccc4)nc3c2)C1 (stereo not drawn) | - | - | - | - | - | -
COc1ccc(NC(=O)N[C@@H]2CC[C@H](CCNC(=O)Cc3ccncc3)O[C@H]2CO)cc1 | - | - | - | - | - | -
COCC1CCCN(C(=O)c2ccc3nc(Cc4cccc(Cl)c4)oc3c2)C1 (stereo not drawn) | - | . | - | - | 69.7 | -
CCOC(=O)N1CCN(C(=O)c2ccc3oc(CCCc4ccccc4)nc3c2)CC1 | - | . | - | - | 80.9 | -
CCOC(=O)N1CCN(C(=O)c2ccc3c(=O)n(CCc4ccccc4)c(=O)[nH]c3c2)CC1 | - | - | 176.9 | - | - | -
CCCOC1CCCN(C(=O)c2ccc3oc(C(C)C)nc3c2)C1 (stereo not drawn) | - | - | - | - | 43.8 | -
O=C(NC1CCCCC1)N[C@H]1CC[C@@H](CCNS(=O)(=O)c2ccc(F)cc2)O[C@@H]1CO | - | - | - | - | - | -
C[n+]1ccccc1/C=C/c1ccc(F)c(F)c1 | - | . | - | . | - | -
C[n+]1ccccc1/C=C/c1ccc2ncccc2c1 | - | . | - | - | 70.7 | -
Cc1sc2nc(CN3CCN(S(=O)(=O)c4cccc5nonc45)CC3)[nH]c(=O)c2c1C | - | - | 93.0 | . | - | -
Cc1ccc(S(=O)(=O)N2CCN(Cc3nc4sc(C)c(C)c4c(=O)[nH]3)CC2)cc1 | - | - | - | . | - | -
C[C@@H]1CN([C@@H](C)CO)S(=O)(=O)c2ccc(-c3cccnc3)cc2O[C@@H]1CN(C)C(=O)c1cccc(F)c1 | - | - | - | - | - | -
C[C@@H]1CN([C@@H](C)CO)C(=O)c2cccc(NC(=O)c3nc4ccccc4s3)c2O[C@H]1CN(C)C(=O)Nc1ccccc1 | - | - | - | - | - | -
COc1ccc(S(=O)(=O)Nc2cccc3c2O[C@H](CN(C)C(=O)Nc2cccc4ccccc24)[C@@H](C)CN([C@@H](C)CO)C3=O)cc1 | . | - | . | - | - | .
COc1ccc(S(=O)(=O)Nc2cccc3c2O[C@H](CN(C)C(=O)Nc2cccc4ccccc24)[C@@H](C)CN([C@H](C)CO)C3=O)cc1 | - | - | . | 27.6 | - | .
C[C@@H]1CN([C@H](C)CO)C(=O)c2cccc(NC(=O)c3nc4ccccc4s3)c2O[C@@H]1CN(C)C(=O)Nc1cccc2ccccc12 | - | - | 80.6 | - | - | -
COc1ccc(S(=O)(=O)Nc2ccc3c(c2)C(=O)N([C@H](C)CO)C[C@@H](C)[C@@H](CN(C)C(=O)Nc2cccc4ccccc24)O3)cc1 | - | - | - | 74.9 | - | -
